# Experimental data as given in ChEMBL document CHEMBL1135050, “Design and synthesis of 4,5-disubstituted-thiophene-2-amidines as potent urokinase inhibitors” (Bioorg Med Chem Lett, 2002).
# Target: Urokinase-type plasminogen activator (Homo sapiens, UniProt P00749)
# Experiment: Inhibition of Human kidney cell urokinase
# Format: cell-based
row,Ki [nM],SMILES
1,101,CSc1sc(C(=N)N)cc1-c1nc(-c2ccccc2)cs1
2,169,COc1ccc(-c2csc(-c3cc(C(=N)N)sc3C)n2)cc1OC
3,1420,C[S+]([O-])c1sc(C(=N)N)cc1-c1nc(-c2ccc(Cl)cc2)cs1 (stereo not drawn)
